In PubChem BioAssay AID651710 (Broad Institute, 2012) one finds inhibition data, which are given here for 63 compounds.

Chains of the proteins cited; added tags and fusions are not shown.
UniProt P43351, whole entry: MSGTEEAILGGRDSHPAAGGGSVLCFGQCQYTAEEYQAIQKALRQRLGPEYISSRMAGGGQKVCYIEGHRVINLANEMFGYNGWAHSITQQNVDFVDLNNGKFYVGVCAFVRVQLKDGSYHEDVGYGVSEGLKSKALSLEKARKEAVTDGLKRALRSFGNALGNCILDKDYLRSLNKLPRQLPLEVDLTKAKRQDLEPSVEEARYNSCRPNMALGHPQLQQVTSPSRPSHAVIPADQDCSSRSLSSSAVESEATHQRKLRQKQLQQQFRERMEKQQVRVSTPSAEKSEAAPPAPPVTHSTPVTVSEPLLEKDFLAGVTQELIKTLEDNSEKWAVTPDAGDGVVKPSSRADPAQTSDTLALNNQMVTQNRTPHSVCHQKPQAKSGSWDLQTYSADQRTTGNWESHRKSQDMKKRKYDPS

The entries are a selection whose mix differs from that of the whole data set. Some salts or complexes appear as unconnected parts, following the source record. The source made the active and inactive calls.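 Rule for the calls: active = every replicate showing at least 50% inhibition; inconclusive = mean inhibition at least 50% but not in every replicate; inactive = the rest.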

For this assay, the target named is DNA repair protein RAD52 homolog (Homo sapiens) (UniProt P43351). Description: RAD52 DNA annealing inhibitors, primary screen, biochemical, FRET, single point, set 2 (AID 651710). To be noted: recombinant RAD52 DNA annealing, FRET fluorescence; at 18.7 µM; stronger effect = higher value.
Usually inhibition stands for the drop in the measured response relative to a control, in per cent. On to `O=[N+]([O-])c1cc([N+](=O)[O-])c(OC2CCCCC2O)c([N+](=O)[O-])c1` (stereo not drawn), for which the inhibition is inactive: -14.3%. In the case of `CCCCCOc1ccc(NP(C)(=O)Oc2ccc(Cl)cc2Cl)cc1` (stereo not drawn) it was inactive: -21.9%; in that of `Cc1c([N+](=O)[O-])cc([N+](=O)[O-])c(Br)c1[N+](=O)[O-]`, inactive: -11.5%; in that of `COc1ccc(OP(C)(=O)Nc2ccc(SC(F)(F)F)cc2)cc1` (stereo not drawn), inactive: -11.4%. In the case of `CCN(CC)CCCNc1ccccc1[N+](=O)[O-].O=[N+]([O-])c1cc([N+](=O)[O-])c(O)c([N+](=O)[O-])c1` it was inactive: -16.9%; in that of `COc1ccc2c(c1O)-c1c(O)c(OC)cc3c1[C@H](C2)[N+](C)(C)CC3.O=[N+]([O-])c1cc([N+](=O)[O-])c([O-])c([N+](=O)[O-])c1[O-]`, inactive: 2.37%. Consider `O=C(OC1CN2CCC1CC2)c1ccc([N+](=O)[O-])cc1` (stereo not drawn), for which the inhibition is inactive: 20.8%. In the case of `O=C(OCCN1CCN(CCOCc2ccccc2)CC1)C(O)(c1ccccc1)c1ccccc1` it was inactive: -7.37%; in that of `CP(=O)(Nc1ccccc1F)Oc1ccccc1` (stereo not drawn), inactive: -10.4%. Consider `CC(C)c1ccc(OP(C)(=O)Nc2ccc(SC(F)(F)F)cc2)cc1` (stereo not drawn), for which the inhibition is inactive: -8.51%. For `O=[N+]([O-])c1cc([N+](=O)[O-])c(Nc2ccc(Cl)cc2)c([N+](=O)[O-])c1` the value was inactive: -2.45%; for `O=[N+]([O-])c1cc([N+](=O)[O-])c(C(F)(F)F)c([N+](=O)[O-])c1O`, inactive: -9.62%. Turning to `CCOP(=O)(CC)OCC`, the inhibition was inactive: -7.88%. As for `CP(=O)(Nc1ccc(SC(F)(F)F)cc1)Oc1ccc(F)cc1` (stereo not drawn), the inhibition is inactive: -4.62%. `Cc1c(C(c2ccc3c(c2)OCO3)c2c(C)n(C)n(-c3ccccc3)c2=O)c(=O)n(-c2ccccc2)n1C.O=[N+]([O-])c1cc([N+](=O)[O-])c(O)c([N+](=O)[O-])c1`: the inhibition was inactive: -0.187%. For `O=[N+]([O-])c1ccc(OP2(=O)COCCO2)cc1` (stereo not drawn) the value was inactive: -6.59%; for `O=[N+]([O-])c1cc([N+](=O)[O-])c(NCC2CCS(=O)(=O)C2)c([N+](=O)[O-])c1` (stereo not drawn), inactive: 2.05%. In the case of `Cc1cc(-c2cccc3ccccc23)c(C)cn1.O=[N+]([O-])c1cc([N+](=O)[O-])c(O)c([N+](=O)[O-])c1` it was inactive: -12.9%; in that of `COc1ccc(NP(C)(=O)Oc2ccccc2OC)cc1` (stereo not drawn), inactive: -13.1%. Take `CCOC(=O)c1ccc(NP(C)(=O)Oc2ccc(Cl)cc2)cc1` (stereo not drawn): the inhibition is inactive: 1.81%. In the case of `Nc1ccc2c(ccc3cccnc32)n1.O=[N+]([O-])c1cc([N+](=O)[O-])c(O)c([N+](=O)[O-])c1` it was inactive: -1.63%; in that of `CN(C)C(=O)c1c([N+](=O)[O-])cc([N+](=O)[O-])cc1[N+](=O)[O-]`, inactive: -8.46%; in that of `COc1ccccc1OP(C)(=O)Nc1ccccc1Br` (stereo not drawn), inactive: -1.59%. In the case of `O=C(OCCCN1CCCC1)C(O)(c1ccccc1)C1CCCCC1` (stereo not drawn) it was inactive: -15.7%. For `CCc1ccc(OP(C)(=O)Nc2cccnc2)cc1` (stereo not drawn), the inhibition was inactive: -9.91%. In the case of `O=[N+]([O-])c1cc([N+](=O)[O-])c(Nc2ccccn2)c([N+](=O)[O-])c1` it was inactive: -0.997%; in that of `COc1ccccc1OP(C)(=O)Nc1ccc(Br)cc1` (stereo not drawn), inactive: -1.33%. In the case of `CP(=O)(OCCOc1ccccc1)OCCOc1ccccc1` it was inactive: -6.8%; in that of `CP(=O)(Nc1ccc(Cl)cc1Cl)Oc1ccccc1` (stereo not drawn), inactive: -2.68%; in that of `CCCCCCCCCCCCCCCC1C[N+](C)(C)CCOP(C)(=O)O1` (stereo not drawn), active: 81.9%. In the case of `Cc1cc(C)cc(OP(C)(=O)Nc2cccc(C(F)(F)F)c2)c1` (stereo not drawn), the inhibition was inactive: 2.11%. In the case of `O=C1C(O)=C([N+](=O)[O-])C(=O)C(O)=C1[N+](=O)[O-]` it was inactive: -13.1%; in that of `Cc1cc(C)cc(OP(C)(N)=O)c1` (stereo not drawn), inactive: 1.07%. For `COc1ccccc1OP(C)(=O)Nc1cc(Cl)ccc1C` (stereo not drawn) the value was inactive: -22%. `O=[N+]([O-])c1ccc2c(c1)C=Nc1ccccc1O2`: the inhibition was inactive: -14.1%. In the case of `Cc1cccc(C)c1OP(C)(N)=O` (stereo not drawn) it was inactive: -15%.

`CC(C)(C)c1ccc(OP(C)(=O)Nc2ccc(SC(F)(F)F)cc2)cc1` (stereo not drawn): the inhibition is inactive: -7.01%. As to `O=[N+]([O-])c1cc([N+](=O)[O-])c(Nc2cccnc2)c([N+](=O)[O-])c1`, the inhibition was inactive: -9.43%. In the case of `COc1ccccc1-c1ccccn1.O=[N+]([O-])c1cc([N+](=O)[O-])c(O)c([N+](=O)[O-])c1` it was inactive: -16.5%; in that of `CCN(CC)CCCOC(=O)C(O)(c1ccccc1)c1ccccc1`, inactive: 8.43%; in that of `CP(=O)(Nc1ccccn1)Oc1ccc(Cl)cc1` (stereo not drawn), inactive: -10.9%. For `CCOC(=O)c1ccc(NP(C)(=O)Oc2ccc(OC)cc2)cc1` (stereo not drawn), the inhibition is inactive: -13.4%. For `O=[N+]([O-])c1cc([N+](=O)[O-])c(O)c([N+](=O)[O-])c1.c1ccc(Oc2ccncc2)cc1` the value was inactive: -8.91%; for `CCc1ccc(OP(C)(=O)N2CCN(c3ccc([N+](=O)[O-])cc3)CC2)cc1` (stereo not drawn), inactive: -8.64%; for `CP(=O)(NC(=O)Nc1ccccc1)Oc1ccccc1` (stereo not drawn), inactive: -10.5%.

`CP(=O)(Oc1ccccc1)OC(c1ccccc1)C(F)(F)F` (stereo not drawn): the inhibition was inactive: -0.657%. As for `CP(=O)(Nc1ccc(SC(F)(F)F)cc1)Oc1ccc(Cl)cc1` (stereo not drawn), the inhibition is inactive: -4.8%. For `CP(=O)(Nc1ccccc1Br)Oc1ccccc1` (stereo not drawn) the value was inactive: -12.4%. In the case of `COc1ccccc1OP(C)(=O)Nc1ccccc1` (stereo not drawn) it was inactive: -5.96%. For `COc1ccc(-c2ccccn2)cc1.O=[N+]([O-])c1cc([N+](=O)[O-])c(O)c([N+](=O)[O-])c1` the value was inactive: -11.7%; for `CCCOc1ccc(NP(C)(=O)Oc2ccc(Cl)cc2)cc1` (stereo not drawn), inactive: -14%. In the case of `CN1CCCCC1COC(=O)C1(O)c2ccccc2CCc2ccccc21` (stereo not drawn), the inhibition was inactive: -14.2%. For `CCOC(=O)C(CC)C1=NC(C)(C)Cc2ccccc21.O=[N+]([O-])c1cc([N+](=O)[O-])c(O)c([N+](=O)[O-])c1` (stereo not drawn) the value was inactive: -17.1%. For `O=[N+]([O-])c1cc([N+](=O)[O-])c(Nc2nnnn2CCO)c([N+](=O)[O-])c1` the value was inactive: -0.477%. For `O=[N+]([O-])c1cc([N+](=O)[O-])c(-c2cnn(-c3ccccc3)c2)c([N+](=O)[O-])c1` the value was inactive: -6.14%. `CN(Cc1cccnc1)C(=O)COc1ccc(Cl)c(Cl)c1.O=[N+]([O-])c1cc([N+](=O)[O-])c(O)c([N+](=O)[O-])c1`: the inhibition is inactive: -18.8%. `O=[N+]([O-])c1cc([N+](=O)[O-])c(-n2nnc3ccccc32)c([N+](=O)[O-])c1`: the inhibition was inactive: -24.4%. On to `CP(=O)(Nc1cccc(Br)c1)Oc1ccccc1` (stereo not drawn), for which the inhibition is inactive: -13.4%.

With `Cc1cc(C)cc(OP(C)(=O)Nc2ccccn2)c1` (stereo not drawn), the inhibition is inactive: -9.22%. In the case of `CCOC(=O)c1ccc(NP(C)(=O)Oc2cc(C)cc(C)c2)cc1` (stereo not drawn), the inhibition was inactive: -5.22%. Regarding `Cc1cc(C)cc(OP(C)(=O)Nc2ccc(C)cc2C)c1` (stereo not drawn), the inhibition is inactive: -2.26%.

For `COc1ccccc1OP(C)(=O)Nc1cccc(Br)c1` (stereo not drawn), the inhibition was inactive: -4.62%. For `O=C(O)c1cccc(Nc2c([N+](=O)[O-])cc([N+](=O)[O-])cc2[N+](=O)[O-])c1`, the inhibition is inactive: -7.18%.
